# Results: publication PMC3836723
# Columns and labels:
# Myc-tagged RLI1 (yeast) = Myc-tagged RLI1 (yeast) (UniProt Q03195); assay: co-IP; WCE of yeast YDH353 (chromosomal Myc-tagged RLI1), 500 µg total protein, 1 µl mouse anti-Myc-Tag IgG, with or without antibody; lysis in buffer A (30 mM HEPES pH 8.8, 20 mM KAc, 3 mM magnesium acetate, 1 mM DTT, 1% Nonidet P-40); Western analysis
# TAP-tagged eRF3 (yeast) = TAP-tagged eRF3 (yeast) (UniProt P05453); assay: pull-down; TAP-tagged chromosomal alleles; cells treated with 1% HCHO before harvest; WCE (1 mg protein) in buffer B (50 mM Tris-HCl pH 7.6, 150 mM NaCl, 0.05% Tween 20) with or without 0.1 mg/ml RNase A; IgG Sepharose 6 Fast Flow beads, 2 h at 4°C; eluted by boiling in SDS buffer or by TEV …; untagged wt strain as control; Western analysis
substance,measurement,setting,value
eIF3g/TIF35 (from UniProt Q04067 1-274) (natural protein),percent of input co-precipitated (% of the input),Myc-tagged RLI1 (yeast),43
same,percent of input co-purified,TAP-tagged eRF3 (yeast),18%
